Measured values from PubChem BioAssay AID652154 (Broad Institute, 2013).
The list shows a part of the results, in another mix than the full data. Activity calls are given as the source filed them.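 The calls were made as follows: active = mean replicate inhibition at least 60% with every replicate also reaching 60%; inconclusive = only one of the two criteria is met; inactive = mean below 60% and not all replicates reaching 60%.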

Experiment: PAX8 transcriptional activity inhibition in RMG-I – RMG-I cells, luciferase, single concentration, primary screen (AID 652154);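 also: luciferase light reporting Pax8 driven TPO promoter activity; plate controls were median of neutral control wells for no effect and mitoxantrone controls for full effect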
Conditions: RMG-I TPO-luciferase reporter, SteadyGlo, 24 h; at 12.6 µM; active compounds read high

| SMILES | inhibition |
| --- | --- |
| CC(C)(C)C(=O)NC(Sc1ccncn1)C(Cl)(Cl)Cl (stereo not given) | inactive: 14.3% |
| O=C(O)CNc1ccc([As](=O)(O)O)cc1 | inactive: -9.18% |
| O=[N+]([O-])c1cccc(NC2=NCC(CBr)S2)c1 (stereo not given) | inactive: -8.33% |
| COC(=O)C1(C)COP(=O)(Nc2ccccc2)OC1 (stereo not given) | inactive: -0.446% |
| O=P1(N(CCCl)CCCl)OCCCS1 (stereo not given) | inactive: 9.78% |
| O=C(Nc1cc([As](=O)(O)O)ccc1O)c1ccccc1 | inactive: -14.9% |
| CCOC(=O)Nc1cccc([As](=O)(O)O)c1 | inactive: 1.73% |
| O=P(Nc1ccccn1)(c1cccc2ccccc12)c1cccc2ccccc12 | inactive: -8.74% |
| Cc1cc(SC(NC=O)C(Cl)(Cl)Cl)ncn1 (stereo not given) | inactive: -3.23% |
| O=[N+]([O-])c1ccc(Nc2ccc(Oc3ccc([N+](=O)[O-])cc3[N+](=O)[O-])cc2)c([N+](=O)[O-])c1 | inactive: -6.9% |
| CCOC(=O)Nc1ccc([As](=O)(O)O)c(O)c1 | inactive: -13.3% |
| O=C(O)C(O)c1ccc(N(CCCl)CCCl)cc1 (stereo not given) | inactive: 8.73% |
| CC1CCNP(=O)(N(CCCl)CCCl)O1 (stereo not given) | inactive: -6.46% |
| COP(=O)(OC)N1CC1c1ccccc1 (stereo not given) | inactive: -3.46% |
| CCCCOc1ccc(C(=O)NCC2(N3CCCCC3)CCCCC2)cc1OC | inactive: 8.4% |
| Cc1cc(SC(NC(=O)c2ccccc2)C(Cl)(Cl)Cl)nc(C(C)C)n1 (stereo not given) | inactive: 11% |
| O=C(OC1CN2CCC1CC2)c1cccc([N+](=O)[O-])c1 (stereo not given) | inactive: -1.02% |
| CCOC(=O)c1ccc(NC(=O)C(C)(CCl)SC)cc1 (stereo not given) | inactive: -71.3% |
| CCC(C)N(CC(C)C)C(=S)SC(NC(C)=O)C(Cl)(Cl)Cl (stereo not given) | inactive: -4.97% |
| COC(=O)C1(C)COP(=O)(N2CCCC2)OC1 (stereo not given) | inactive: -2.51% |
| O=C(O)C(=O)c1ccc(N(CCCl)CCCl)cc1 | inactive: 4.89% |
| O=C(COc1ccccc1)OC1CN2CCC1CC2 (stereo not given) | inactive: 1.96% |
| O=C(Nc1ccncc1[N+](=O)[O-])c1ccc([N+](=O)[O-])cc1[N+](=O)[O-] | inactive: -27% |
| O=[N+]([O-])c1cc(Oc2ccc([N+](=O)[O-])cc2C(F)(F)F)cc([N+](=O)[O-])c1 | inactive: 7.06% |
| COc1ccc(N/C(=N/P(=O)(N2CCOCC2)N2CCOCC2)N2CCOCC2)cc1 | inactive: -15% |
| Cc1c2c(nc3ccccc13)SC(C(Cl)Cl)C2 (stereo not given) | inactive: 4.4% |
| Cc1cc(=O)[nH]c(N[N+](=O)[O-])n1 | inactive: 0.542% |

| SMILES | inhibition |
| --- | --- |
| COc1ccc(CN2/C(=N\P(=O)(Oc3ccccc3)Oc3ccccc3)Cc3ccccc3C2C2CC2)cc1 (stereo not given) | active: 89.6% |
| O=P1(N(CCCl)CCCl)OCCCN1CCCl (stereo not given) | inactive: -9.57% |
| COc1ccc2nc(NP(=O)(c3ccccc3)c3ccccc3)sc2c1 | inactive: 8.84% |
| COc1cc(I)ccc1[As](=O)(O)O | inactive: 14% |
| ClCCSc1nnc(-c2cccnc2)o1 | inactive: -3.23% |
| CC(C)c1ccc(OP(=O)(Nc2ccccn2)Oc2ccccc2F)cc1 (stereo not given) | inactive: 10.2% |
| COC(=O)C1(C)COP(=O)(N2CCCCCC2)OC1 (stereo not given) | inactive: 15.4% |
| O=C(OC1CN2CCC1CC2)c1cccc2[nH]cnc12 (stereo not given) | inactive: 4.74% |
| CC(C)NC(=O)NP(=O)(Oc1ccccc1)Oc1ccccc1 | inactive: -2.79% |
| O=[As](O)(c1ccc(O)cc1)c1ccccc1O | inactive: -19.5% |
| C[As](=O)(O)c1cccc(C(=O)O)c1 | inactive: -10.1% |
| COc1cc(C(=O)NCC2(N3CCOCC3)CCCCC2)ccc1OCC(C)C | inactive: 10.1% |
| O=[N+]([O-])c1ccc(-c2cc([N+](=O)[O-])c(O)c([N+](=O)[O-])c2)cc1 | inactive: -24% |
| [N-]=[N+]=NC1CCCCC1NC(=O)c1cc([N+](=O)[O-])cc([N+](=O)[O-])c1 (stereo not given) | inactive: -5.95% |
| Cc1ccc(OP(=O)(Nc2ccc([N+](=O)[O-])cn2)Oc2ccc(C)cc2)cc1 | inactive: -26.1% |
| Cc1ccc2nc3c(c(C)c2c1)CC(C(Cl)Cl)S3 (stereo not given) | inactive: -35.1% |
| NC(=O)Nc1ccc([As](=O)(O)O)cc1 | inactive: -1.35% |
| N#CCCN(C(=O)COC(=O)C(O)(c1ccccc1)c1ccccc1)c1ccc(F)cc1 | inactive: 8.08% |
| CN(C(=O)Cc1ccccc1)[C@@H]1CC[C@]2(CCCO2)C[C@H]1N1CCCC1 | inactive: 11.5% |
| CN(C)C(=O)c1cc([N+](=O)[O-])cc2c1-c1c(cc([N+](=O)[O-])cc1[N+](=O)[O-])C2=O | inactive: 56.8% |
| CN(C(=O)Cc1ccc(Cl)c(Cl)c1)[C@H]1CC[C@@]2(CCCO2)C[C@@H]1N1CCCC1 | inactive: -12.9% |
| O=P(Nc1nccs1)(Oc1ccccc1)Oc1ccccc1 | inactive: -6.73% |
| Nc1ccccc1[As](=O)(O)c1ccccc1 | inactive: 1.35% |
| O=C(O)COc1ccc([As](=O)(O)O)cc1[N+](=O)[O-] | inactive: 11.1% |
| Nc1cccc2c([As](=O)(O)O)cccc12 | inactive: -1.99% |
| Cc1ccc(NCCc2c([N+](=O)[O-])cc([N+](=O)[O-])cc2[N+](=O)[O-])cc1 | inactive: -12% |
| CCCOP(=S)(Nc1nc(N)cc(=O)[nH]1)OCCC | inactive: 12.4% |

| SMILES | inhibition |
| --- | --- |
| CCOP(=O)(Nc1cccc2ccccc12)OCC | inactive: 18.6% |
| O=C(OC1CN2CCC1CC2)c1ccc(Cl)cc1 (stereo not given) | inactive: -1.92% |
| COc1cc(C(=O)NCC2(N3CCOCC3)CCCCC2)cc(Cl)c1OC(C)C | inactive: 27.8% |
| O=[As](O)(O)c1cccnc1 | inactive: 9.67% |
| CS(=O)(=O)c1ccc(Cl)c(NC(=O)COC(=O)C(O)(c2ccccc2)c2ccccc2)c1 | inactive: 12.6% |
| O=[As](O)(c1cccc(O)c1)c1cccc(O)c1 | inactive: 3.74% |
| COc1ccccc1CNC(=O)COC(=O)C(O)(c1ccccc1)c1ccccc1 | inactive: 2.8% |
| CC(C)/C=N\N=C(\N)N[N+](=O)[O-] | inactive: -20.2% |
| CN(C(=O)Cc1ccc(Cl)c(Cl)c1)[C@@H]1CCCC[C@H]1N1CCCC1 | inactive: -3.35% |
| O=P1(Nc2ccccn2)COc2ccccc2OC1 | inactive: 12.8% |
| CCC1=CC2Cc3nc4ccc(Cl)cc4c(N)c3C(C1)C2 (stereo not given) | inactive: 44.5% |
| CCOP(=O)(NC(=NC(C)c1ccccc1)NC(C)c1ccccc1)OCC (stereo not given) | inactive: -20.1% |
| CN(CCCl)Cc1cc(Cl)c(NC2=NCCN2)c(Cl)c1 | inactive: -9.72% |
| CCOP(=O)(Nc1ccc(C)cn1)OCC | inactive: 4.42% |
| O=P1(N(CCCl)CCCl)NCCC(C(F)(F)F)O1 (stereo not given) | inactive: -7.48% |
| CC(C)(C)C(=O)NC(Sc1ncccn1)C(Cl)(Cl)Cl (stereo not given) | inactive: 0.09% |
| Cc1ccc(S(=O)(=O)N(CCCN)CCCc2c(C)nc(N)[nH]c2=O)cc1 | inactive: -3.62% |
| O=P1(Nc2ncccn2)COc2ccccc2OC1 | inactive: 7.3% |
| Nc1cccc([As](=O)(O)c2ccccc2)c1 | inactive: -9.83% |
| NS(=O)(=O)c1cccc(NC(=O)COC(=O)C(O)(c2ccccc2)c2ccccc2)c1 | inactive: -0.608% |
| O=[As](O)(c1cccs1)c1cccs1 | inactive: -20% |
| CC1CCC(C(C)C)C(OP(=O)(Nc2ccccn2)c2ccccc2)C1 (stereo not given) | inactive: 22.2% |
| Cc1ccc(C(=O)OC2CN3CCC2CC3)cc1 (stereo not given) | inactive: 2.67% |
| CN(C)C1(CNC(=O)c2ccc(S(C)(=O)=O)cc2)CCCCC1 | inactive: -3.75% |
| O=C(/C=C/c1ccccc1)OC1CN2CCC1CC2 (stereo not given) | inactive: -18.4% |
| CCCC1OP(=O)(Nc2ccccc2)OCC1CC (stereo not given) | inactive: 8.34% |
